The data set in a line: Efficiency of entrapment of drugs/bioactive agents in collagen disks or particles. In kind it is physicochemical. As for the experimental part: Efficiency of entrapment of drugs/bioactive agents in the collagen disks or particles, and kinetics of drug efflux for small molecular weight drugs was determined utilizing absorption spectra (mostly in an ELISA plate reader), fluorescence emission spectra (mostly in a fluorescence plate reader), and HPLC. Half-life data was processed according to a theoretical framework previously developed for liposomes (Margalit et al., 1991), incorporated herein in its entirety) which yields the rate constant for drug efflux. Typical results of the efficiency of entrapment are listed in Tables 1 and 2, for the particles and disks, respectively.

Turning to “Interferon alpha: the antiviral protein interferon 2α-(INFα)”, the “% Entrapment” value runs as follows: (Collagen Disks (1-20 mm in a diameter)) 93.6 ± 1.3%; (Collagen particles (0.5-10 μm in diameter)) 88.2 ± 5.1%.
